## Measured affinities in a library of Ab-14 heavy chain variants

The target is the same throughout: PDVDLGDISGINAS, from the HR2 region of SARS-CoV-2 spike.

Parent scFv Ab-14: VH joined to VL by a (GGGGS)3 linker. Changes lie in the heavy chain CDRs alone.
VH: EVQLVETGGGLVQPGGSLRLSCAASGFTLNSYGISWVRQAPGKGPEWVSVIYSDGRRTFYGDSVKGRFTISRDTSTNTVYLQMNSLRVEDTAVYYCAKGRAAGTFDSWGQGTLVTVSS
VL: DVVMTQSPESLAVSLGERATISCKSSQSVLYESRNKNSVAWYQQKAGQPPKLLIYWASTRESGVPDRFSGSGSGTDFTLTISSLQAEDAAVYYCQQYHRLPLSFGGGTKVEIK

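The starting antibody came from a phage panning campaign against this peptide. Library AAYL49 holds single substitutions and randomly drawn double and triple substitutions in the CDRs. In AlphaSeq, yeast of one mating type display the scFv and yeast of the other type display the target. Binding brings cells together so that they mate, and sequencing counts the barcode pairs among the diploids. Each replicate has its own calibration line, from reference interactions of the BCL2 family. Each pool was mated in three replicate cultures.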

Positions count from residue 1 of the parent VH; G26Q puts Q in place of G. Affinities are written as log10 Kd with Kd in nM; a lower number is a better binder. Where no diploid with the target was found in that replicate, the entry reads "ND": below detection, most likely a poor binder, though not proof of it. Background: pairings of library AAYL49 with three empty control strains gave a value in 15% of cases (median 4.06, 5th percentile 2.83). Values in that range, when seen in few replicates, are hard to tell from nonspecific mating. For each scFv, signals with the empty controls are counted beside the result, with their mean in brackets. Parent in this assay: reference entry 0.65, copy in this library 4.11 (one replicate of three).

changes,"replicates, log10 nM",empty controls
G26Q/I34W/V64T,ND / 3.46 / ND,0/9
R57Q/G99L,ND / ND / ND,0/9
N30F/V50A/D62A,ND / ND / ND,1/9 (2.72)
I51W/R56S/K65T,ND / 4.51 / 6.03,5/9 (4.43)
S31A/R56K/R57E,ND / 5.10 / ND,3/9 (3.55)
R56A/G103V/S107Q,ND / ND / ND,0/9
D54L/T104L/F105H,3.41 / ND / 3.83,2/9 (4.20)
S53W/A102C,1.84 / 1.76 / 2.37,1/9 (3.55)
G26I/Y32C/R100V,ND / ND / ND,0/9
G26C/R100K/G103P,ND / ND / ND,0/9
G26L/S63H/T104V,ND / ND / ND,0/9
V50M/R56G/R100M,ND / ND / ND,0/9
G33H/S63T/S107D,ND / ND / ND,0/9
S35M/R57F/V64L,ND / ND / ND,1/9 (3.35)
S35K/R56S/A102G,ND / ND / ND,2/9 (3.98)
F27S/D62C/F105I,ND / 3.43 / ND,0/9
S31D/G33V/R57T,ND / ND / ND,2/9 (3.26)
S35F/Y52N/G103H,4.47 / 5.06 / ND,3/9 (4.04)
S63A/A102E/D106G,2.91 / 2.61 / 3.06,1/9 (5.71)
Y60K/S63R/S107Y,ND / ND / ND,0/9
G26A/S31K/K65Y,2.00 / 2.20 / 2.24,4/9 (4.55)
R56F/S63C/D106R,ND / ND / 3.28,2/9 (4.39)
G55A/G99P,ND / ND / ND,1/9 (3.49)
S53Y/R100E/D106S,1.22 / 0.95 / 1.63,0/9
T28V/R100A/D106A,ND / ND / 2.57,1/9 (3.44)
S53P/T58M/F105D,ND / ND / ND,0/9
Y32H/V64G,ND / ND / ND,0/9
T28D/D62Q/S107V,-0.02 / 0.34 / 0.09,4/9 (4.84)
L29I/R57E/F105H,ND / ND / ND,1/9 (3.97)
S31V/D54S/K65T,ND / ND / ND,4/9 (3.09)
S35Y/G55T/D62F,ND / ND / ND,0/9
S53E/D62H/T104K,ND / ND / ND,0/9
L29Q/R56I,ND / ND / ND,0/9
Y60L/G61N,ND / 4.19 / ND,1/9 (3.97)
G26H/F27L/F105W,ND / ND / ND,1/9 (3.14)
V50H/A102L/G103H,ND / ND / ND,1/9 (4.41)
N30K/Y32P/F59A,1.23 / 1.66 / 1.50,8/9 (4.42)
G26M/S63G/V64A,ND / 3.12 / ND,0/9
S53R/V64C/T104N,ND / ND / ND,0/9
G26P/T58L/V64N,ND / ND / ND,0/9
G26A/V50I/S107C,3.00 / 2.32 / ND,0/9
F27I/S35Q/D54A,3.39 / 4.46 / ND,0/9
G26R/R56M/A102T,ND / ND / 3.01,1/9 (2.92)
F27C/R57W/G61K,ND / 4.03 / ND,2/9 (3.42)
G33K/R57M/G61Q,ND / ND / ND,0/9
K65S/A102D,1.94 / 1.93 / 1.90,3/9 (4.48)
S31P/T58I/A102M,3.89 / 4.96 / ND,6/9 (3.71)
Y52R/G99H,ND / ND / ND,1/9 (2.27)
T28L/D62Y/D106M,3.65 / 4.15 / 4.93,5/9 (4.94)

From the AlphaSeq antibody data of Engelhart et al. 2022 (doi:10.1038/s41597-022-01779-4), copy in the FLAb collection.